# Literature values in patent publication US20120309811A1, “P-GLYCOPROTEIN-SPECIFIC NON-COMPETITIVE PEPTIDE AND PEPTIDOMIMETIC MODULATORS” (UNIVERSITE CLAUDE BERNARD - LYON 1, priority 2009, published 2012).
# By UniProt entry, the sequences of proteins in these tests, tags left out.
# UniProt P08183, whole entry: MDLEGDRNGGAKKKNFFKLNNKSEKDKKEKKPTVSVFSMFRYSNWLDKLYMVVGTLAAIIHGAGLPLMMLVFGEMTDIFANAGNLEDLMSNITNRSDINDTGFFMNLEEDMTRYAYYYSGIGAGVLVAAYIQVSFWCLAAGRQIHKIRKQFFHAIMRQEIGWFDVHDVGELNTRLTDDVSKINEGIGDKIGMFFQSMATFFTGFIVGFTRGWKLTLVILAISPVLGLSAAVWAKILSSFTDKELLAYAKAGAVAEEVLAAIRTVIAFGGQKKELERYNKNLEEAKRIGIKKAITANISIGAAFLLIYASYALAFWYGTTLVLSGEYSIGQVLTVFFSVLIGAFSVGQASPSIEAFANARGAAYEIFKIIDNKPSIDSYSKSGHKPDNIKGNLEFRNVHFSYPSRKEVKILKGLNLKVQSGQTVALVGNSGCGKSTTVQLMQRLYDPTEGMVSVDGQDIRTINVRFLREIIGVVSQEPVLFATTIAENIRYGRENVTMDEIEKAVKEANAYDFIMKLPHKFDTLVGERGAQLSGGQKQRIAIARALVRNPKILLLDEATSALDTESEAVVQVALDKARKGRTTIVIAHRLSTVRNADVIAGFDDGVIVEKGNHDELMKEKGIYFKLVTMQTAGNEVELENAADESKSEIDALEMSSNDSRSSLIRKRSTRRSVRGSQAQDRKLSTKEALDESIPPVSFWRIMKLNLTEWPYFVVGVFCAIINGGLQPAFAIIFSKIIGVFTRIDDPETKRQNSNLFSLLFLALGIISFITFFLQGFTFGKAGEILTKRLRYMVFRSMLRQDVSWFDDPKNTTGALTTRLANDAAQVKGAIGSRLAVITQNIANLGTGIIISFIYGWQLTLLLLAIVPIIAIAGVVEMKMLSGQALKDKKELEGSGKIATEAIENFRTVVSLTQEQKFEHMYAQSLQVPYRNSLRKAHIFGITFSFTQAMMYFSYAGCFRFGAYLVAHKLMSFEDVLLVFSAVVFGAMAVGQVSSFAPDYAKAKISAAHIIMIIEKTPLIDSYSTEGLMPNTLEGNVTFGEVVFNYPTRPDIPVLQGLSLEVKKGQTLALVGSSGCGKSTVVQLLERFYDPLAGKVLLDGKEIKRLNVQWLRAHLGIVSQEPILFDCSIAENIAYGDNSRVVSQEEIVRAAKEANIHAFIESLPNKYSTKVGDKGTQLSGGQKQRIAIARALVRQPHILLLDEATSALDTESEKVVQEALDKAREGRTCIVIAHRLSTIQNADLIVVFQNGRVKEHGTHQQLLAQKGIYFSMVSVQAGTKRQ
# Biological target: ABCB1 (Homo sapiens, UniProt P08183)
# Set-up: key: the inhibitor is active (+); it is inactive (−); the effect is unknown (?)
# Details: cited from earlier work
compound,measurement,value
O[C@@H](COc1cccc2ncccc12)CN1CCN([C@@H]2c3ccccc3[C@@H]3[C@H](c4ccccc42)C3(F)F)CC1 [Ly335979 (zosuquidar)],activity of MDR inhibitor on ABCB1,+
